According to US20230212123A1, “Pyridine Inhibitors of Glucosylceramide Synthase and Therapeutic Methods Using the Same” (THE REGENTS OF THE UNIVERSITY OF MICHIGAN, priority 2020, published 2023):

Assays:
[1] = test system: glucosylceramide (GlcCer) in brain and liver; assay: Reduction of brain and liver glucosylceramide in CBE mice; format: in vivo; conditions: dose 109 µmol/kg, 14 days, D409V/null mice with CBE 25 mg/kg/day ip
Method: The in vivo assay measured the reduction in brain and liver glucosylceramide and glucosylsphingosine levels in mice on a D409V background concurrently treated with conduritol B epoxide (CBE), an irreversible inhibitor of GBA (beta-glucocerebrosidase).
Reduction of Brain and Liver Glucosylceramide and Glucosylsphingosine in CBE Mice
The reduction by inhibitors of GCS in brain glucosylceramide and glucosylsphingosine content was determined by the use of mice with Gba 1 mutant alleles, termed D409V/null. These are knock-in mice with a Gba 1 point mutation encoding Valine (V) 409 for the wild type (WT) Aspartate (D) on one missense allele and a null heteroallele [D409V/null (9V/null)]. The D409V/null and WT littermates were of mixed gender and mixed, but matched, genetic backgrounds of C57BL/129Sv/FVB. […] The mice were sacrificed 2 hours following the last injection and tissues including brain, liver, spleen, kidney and lung were analyzed for glucosylceramide and glucosylsphingosine by mass spectrometry. […]
The analysis of neutral glycosphingolipids from mouse liver, kidney, and brain was processed after alkaline methanolysis. […] GlcCer levels were quantified by comparison to known standards.

[2] = Pharmacokinetics in mice: plasma and brain drug AUC; format: in vivo; conditions: over 7 hrs following single IP injection at 10 mg/kg
From the text: The pharmacokinetics of selected compounds of structural formula (I) and structurally-related compounds in the prior art lacking an aromatic nitrogen atom are summarized in Table 3.

**Q.** Which results are given for “2-(2,3-dihydro-1H-inden-2-yl)-N-((1R,2R)-1-hydroxy-1-(6-methoxypyridin-3-yl)-3-(pyrrolidin-1-yl)propan-2-yl)acetamide [Example 1]”?
**A.** CBE mouse GlcCer reduction in brain ([1]; brain): 37%; CBE mouse GlcCer reduction in liver ([1]; liver): 50%; Brain AUC/Plasma AUC [2]: 0.11; Brain drug AUC [2]: 94 ng·h/g; Plasma drug AUC [2]: 895 ng·h/mL
